Reference: PMC10076467 (EJNMMI Research, 2023)
Read-outs that look alike come from different tables or passages of the source.

Chains of the proteins cited; added tags and fusions are not shown. Residues count along the entry.
UniProt Q00960, 27-1482: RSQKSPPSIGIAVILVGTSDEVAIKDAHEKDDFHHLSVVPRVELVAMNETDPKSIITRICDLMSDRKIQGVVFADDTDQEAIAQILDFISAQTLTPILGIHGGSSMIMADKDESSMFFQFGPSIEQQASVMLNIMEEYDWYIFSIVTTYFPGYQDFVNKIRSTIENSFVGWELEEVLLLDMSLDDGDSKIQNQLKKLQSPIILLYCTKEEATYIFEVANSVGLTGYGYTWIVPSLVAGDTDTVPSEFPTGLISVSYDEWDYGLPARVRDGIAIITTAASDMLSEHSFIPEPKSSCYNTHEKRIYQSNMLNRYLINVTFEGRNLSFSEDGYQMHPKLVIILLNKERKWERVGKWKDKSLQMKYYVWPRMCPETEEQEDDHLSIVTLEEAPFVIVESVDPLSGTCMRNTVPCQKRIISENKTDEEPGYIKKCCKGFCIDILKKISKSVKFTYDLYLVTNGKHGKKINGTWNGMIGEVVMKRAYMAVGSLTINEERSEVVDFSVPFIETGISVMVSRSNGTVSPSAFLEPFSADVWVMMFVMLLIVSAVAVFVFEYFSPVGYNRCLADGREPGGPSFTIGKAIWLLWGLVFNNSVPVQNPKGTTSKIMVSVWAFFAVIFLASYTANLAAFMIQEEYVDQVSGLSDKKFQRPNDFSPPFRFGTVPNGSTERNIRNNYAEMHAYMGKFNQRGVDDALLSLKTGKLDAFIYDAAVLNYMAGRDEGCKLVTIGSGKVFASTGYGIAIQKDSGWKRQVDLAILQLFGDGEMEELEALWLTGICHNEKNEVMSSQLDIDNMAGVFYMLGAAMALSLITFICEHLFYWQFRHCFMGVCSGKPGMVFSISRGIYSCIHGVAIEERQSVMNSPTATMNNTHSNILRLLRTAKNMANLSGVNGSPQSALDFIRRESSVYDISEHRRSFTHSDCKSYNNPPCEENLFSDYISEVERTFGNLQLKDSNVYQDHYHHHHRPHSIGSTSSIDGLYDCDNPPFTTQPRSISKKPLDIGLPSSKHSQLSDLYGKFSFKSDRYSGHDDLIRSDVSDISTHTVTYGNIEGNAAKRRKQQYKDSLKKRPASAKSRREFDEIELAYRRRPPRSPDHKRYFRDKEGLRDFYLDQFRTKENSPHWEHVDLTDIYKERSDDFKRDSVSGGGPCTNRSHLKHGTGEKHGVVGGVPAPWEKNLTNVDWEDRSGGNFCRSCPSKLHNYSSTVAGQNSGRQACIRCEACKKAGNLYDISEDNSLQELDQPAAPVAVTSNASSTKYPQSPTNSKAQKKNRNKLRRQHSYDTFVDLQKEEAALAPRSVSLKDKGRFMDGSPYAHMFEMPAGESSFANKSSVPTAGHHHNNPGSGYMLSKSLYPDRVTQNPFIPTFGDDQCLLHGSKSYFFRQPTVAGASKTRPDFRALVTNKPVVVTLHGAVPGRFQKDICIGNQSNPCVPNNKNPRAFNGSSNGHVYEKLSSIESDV

Key:
[1] = target: T1, GluN2B receptors (Rattus norvegicus, UniProt P35439+Q00960); design: method as in PMID 31924728; conditions: pre-blocking, radioligand ^11C-(S)-NR2B-SMe; cited from earlier work
T1 construct: from tissue; host or cells: brain of living male rats (PET imaging)

[2] = target: T1, GluN2B receptors; experiment: PET displacement / pre-blocking of ^11C-NR2B-Me radioligands with Ro-25-6981, Lassen plots; assay type: in vivo
Procedure: (§1) For radioligand injection, a polyethylene catheter (PE 10) was inserted into the penile vein of a male rat and then secured with tissue adhesive and tape. […] Body temperature was monitored with a rectal probe. All PET scans were performed on a microPET Focus 220 scanner (Siemens Medical Solutions) (7,8). Data were acquired in listmode and reconstructed with Fourier rebinning + 2D filtered backprojection. A transmission scan was acquired before radioligand injection for attenuation correction. Dynamic scanning began at the time of a one-minute intravenous bolus injection of the radioligand under study (55 ± 19 MBq; volume 0.2 to 1.0 mL). The injected mass dose was 3 ± 1 nmol/kg. Challenge agents were administered intravenously 10 minutes before the radioligand for pre-blocking studies or 10 minutes after the radioligand for displacement studies. Tomographic images were analyzed with pixel-wise modeling computer software (PMOD 2.6; PMOD Group). Regions-of-interest in the brain were delineated, and time-activity curves calculated as SUV versus time.
(§2) Pre-blocking and displacement experiments were performed to assess radioligand target engagement and radioligand selectivity in vivo. […] Areas-under the curve (AUCs) from time-activity curves between 20 and 90 minutes were calculated for each radioligand. […] Numerical data are expressed as mean ± S.D. for n>2, or as mean and range for n = 2.

[3] = target: T1, GluN2B receptors; experiment: ED50 for pre-blocking of GluN2B radioligand uptake in rat whole brain (PET); assay type: in vivo
Procedure: as §1, §2

reduction of PET signal in whole rat brain relative to baseline ([2]; 0.25 mg/kg i.v. 10 min before the radioligand (Fig. 3, ^11C-(−)-NR2B-Me)): up to 90% | receptor occupancy from Lassen plot slope ([2]; 0.25 mg/kg pre-block, ^11C-(−)-NR2B-Me or ^11C-(+)-NR2B-Me): near full receptor occupancy | ED50 ([3]; read-out: ED50 in rat whole brain in vivo ^11C-(+)-NR2B-Me): 0.045 µmol/kg | ED50 ([3]; read-out: ED50 in rat whole brain in vivo ^11C-(−)-NR2B-Me): 0.034 µmol/kg
SMILES: C[C@@H](CN1CCC(Cc2ccccc2)CC1)[C@@H](O)c1ccc(O)cc1 [Ro-25-6981]
ED50 in rat whole brain in vivo ^11C-(S)-NR2B-SMe [1]: 29 nmol/kg
